Reference: ChEMBL document CHEMBL1909509, “Mepyramine-JNJ7777120-hybrid compounds show high affinity to hH(1)R, but low affinity to hH(4)R” (Bioorg Med Chem Lett, 2011)
Active and inactive are the calls of the source. The rule behind the calls is not given here.

The chains behind the UniProt entries cited, without tags or fusion partners.
UniProt P31389, whole entry, looked up: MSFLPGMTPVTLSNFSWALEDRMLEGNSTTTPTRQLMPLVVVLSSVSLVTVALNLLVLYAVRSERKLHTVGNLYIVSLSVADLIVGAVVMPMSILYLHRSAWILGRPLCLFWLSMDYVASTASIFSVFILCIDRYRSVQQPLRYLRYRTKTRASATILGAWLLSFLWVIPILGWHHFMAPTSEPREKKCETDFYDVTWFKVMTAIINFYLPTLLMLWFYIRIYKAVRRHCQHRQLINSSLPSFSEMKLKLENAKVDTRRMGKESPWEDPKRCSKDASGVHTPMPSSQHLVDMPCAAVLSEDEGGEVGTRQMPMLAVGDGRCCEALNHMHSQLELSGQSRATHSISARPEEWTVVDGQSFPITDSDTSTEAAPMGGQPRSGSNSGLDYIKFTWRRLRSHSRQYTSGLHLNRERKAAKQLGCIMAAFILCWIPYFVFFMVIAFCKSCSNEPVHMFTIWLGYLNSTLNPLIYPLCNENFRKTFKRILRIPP

Biological target: Histamine H1 receptor (Cavia porcellus) (UniProt P31389)
Assay: Partial agonist activity at H1R in guinea pig ileum assessed as inhibition of histamine-induced muscle contraction after 15 mins
Assay type: functional, tissue-based
Method in brief: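 Isolated guinea-pig ileum, contraction induced by histamine; test ligand incubated 15 min before the histamine response.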

O=C(c1cc2ccccc2[nH]1)N1CCN(CCN2CCC(Nc3nc4ccccc4n3Cc3ccc(F)cc3)CC2)CC1
inhibition: inactive
